# From BindingDB's records for doi:10.1021/acs.jmedchem.0c00745 (National Institute of Diabetes and Digestive and Kidney …, 2020)
# pIC50: −log10 of the molar value.
# Target: T1, P2Y purinoceptor 14 (Homo sapiens, UniProt Q15391)
# T1 sequence (Q15391 whole entry): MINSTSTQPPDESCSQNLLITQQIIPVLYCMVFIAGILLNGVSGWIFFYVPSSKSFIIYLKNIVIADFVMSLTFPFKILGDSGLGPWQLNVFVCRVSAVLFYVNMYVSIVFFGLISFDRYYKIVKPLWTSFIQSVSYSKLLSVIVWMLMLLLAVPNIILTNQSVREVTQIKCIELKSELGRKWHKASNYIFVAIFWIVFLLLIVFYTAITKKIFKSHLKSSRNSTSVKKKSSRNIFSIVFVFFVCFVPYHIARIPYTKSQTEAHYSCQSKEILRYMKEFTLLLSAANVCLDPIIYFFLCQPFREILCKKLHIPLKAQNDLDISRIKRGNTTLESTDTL
# Test: Inhibition of MRS4174 binding to human P2Y14R expressed in CHO cells pre-incubated for 30 mins before MRS4174 addition and further incubated for 30 mins at pH 7.4 by flow cytomtery based competitive fluorescence assay
row,SMILES,pIC50
1,CC(C)(C)OC(=O)NCCOCCOCCOCCOCCOCCOCCOCCC(=O)N1CCC(c2ccc(-c3cc(C(=O)O)cc4cc(-c5ccc(C(F)(F)F)cc5)ccc34)cc2)CC1,5.55
2,NC(=O)c1ccc(-c2cc(C(=O)O)cc(C(=O)Nc3cc4cc(C(F)(F)F)ccc4[nH]3)c2)cc1,5.61
3,COCCOCCOCCOCCOCCOCCOCCC(=O)N1CCC(c2ccc(-c3cc(C(=O)O)cc4cc(-c5ccc(C(F)(F)F)cc5)ccc34)cc2)CC1,5.85
4,O=C(O)c1[nH]c(-c2ccc(C3CCNCC3)cc2)cc1-c1cn(-c2ccc(C(F)(F)F)cc2)nn1,4.95
5,CC(=O)NCCOCCOCCOCCOCCOCCOCCOCCC(=O)N1CCC(c2ccc(-c3cc(C(=O)O)cc4cc(-c5ccc(C(F)(F)F)cc5)ccc34)cc2)CC1,6.01
6,NC(=O)c1ccc(-c2cc(C(=O)O)cc(C(=O)Nc3nc4cc(C(F)(F)F)ccc4[nH]3)c2)cc1,4.61
